# Reference: PubChem BioAssay AID504329 (Southern Research Specialized Biocontainment Screening …, 2011)
# This is one part of the list. Results with a measured potency or affinity are listed apart. Some tests of the compounds listed are not included; inactive here does not mean inactive elsewhere. Active and inactive are the calls of the source. No stated cut-off is given here; in the data, inconclusive means inhibition above about 27% without an active follow-up result; inactive means below that.
# Test: NS1A inhibition, H1N1 influenza, cell based functional assay (AID 504329)
# Settings: percent inhibition, at 12.5 µM, hits give high values
row,Compound,inhibition
1,O=C(NCC1(N2CCCCC2)CCCCC1)c1cc([N+](=O)[O-])ccc1Cl,inactive: -1.01%
2,CN1[C@@H]2CC[C@H]1CC(OC(=O)C(O)(c1ccccc1)c1ccccc1)C2 (stereo not given in full),inactive: -18.8%
3,CC(C)N1C(=O)CC2(CCN(CCOC(=O)C(O)(c3ccccc3)c3ccccc3)CC2)C1=O,inactive: 2.75%
4,COc1cc(SC)ccc1C(=O)NCC1(N(C)C)CCCCC1,inactive: -3.54%
5,CCN(CC)CC(C)C(C)OC(=O)C(O)(c1ccccc1)c1ccccc1 (stereo not given),inactive: -13%
6,Cc1ccc(C(=O)NCC2(N3CCCCC3)CCCCC2)cc1,inactive: -0.73%
7,CN(C)C1CCCC1OC(=O)C(O)(c1ccccc1)c1ccccc1 (stereo not given),inactive: -2.26%
8,CN(C)c1ccc(C(=O)NCC2(N(C)C)CCCCC2)cc1,inactive: -2.86%
9,Cc1ccccc1C(=O)NCC1(N2CCCCC2)CCCCC1,inactive: 7.29%
10,O=C(NCC1(N2CCCCC2)CCCCC1)c1cc(F)c(F)cc1Cl,inactive: -6.35%
11,C=CCN1CCN(CCOC(=O)C(O)(c2ccccc2)c2ccccc2)CC1,inactive: -12.5%
12,O=C(NCC1(N2CCCCC2)CCCCC1)c1cccc(Br)c1,inactive: -0.27%
13,Cc1cc(C(=O)NCC2(N3CCCCC3)CCCCC2)ccc1[N+](=O)[O-],inactive: 0.35%
14,CCN1CCCC(OC(=O)C2(O)c3ccccc3C=Cc3ccccc32)C1 (stereo not given),inactive: -4.59%
15,COc1ccc(C(=O)NCC2(N(C)C)CCCCC2)cc1,inactive: -6.86%
16,CN(C)C1(CNC(=O)c2ccc(Br)cc2)CCCCC1,inactive: -2.51%
17,COc1cc(C(=O)NCC2(N(C)C)CCCCC2)c([N+](=O)[O-])cc1OC,inactive: -21.6%
18,COc1ccc(Cl)cc1C(=O)NCC1(N(C)C)CCCCC1,inactive: -4.24%
19,COc1cccc(C(=O)NCC2(N3CCCCC3)CCCCC2)c1,inactive: -4.9%
20,O=C(NCC1(N2CCCCC2)CCCCC1)c1cccc(Cl)c1,inactive: 1.13%
21,O=C(OC1CN2CCC1CC2)C(CO)(c1ccccc1)c1ccccc1 (stereo not given),inactive: 1.87%
22,COc1ccc(Br)c(C(=O)NCC2(N3CCCCC3)CCCCC2)c1,inactive: 1.51%
23,CN(C)c1cccc(C(=O)NCC2(N(C)C)CCCCC2)c1,inactive: -4.13%
24,O=C(OCCN1CCCC1)C(O)(c1ccccc1)c1ccccc1,inactive: -3.92%
25,CC(C)Oc1ccc(C(=O)NCC2(N(C)C)CCCCC2)cc1,inactive: 0.8%
